Earlier results, collected in patent US20070010657A1, “Cytoplasmic dynein heavy chain 1 genes, expression products, non-human animal model uses in human neurological diseases” (priority 2002, published 2007).

Tested on: ALS diagnosed patients
Details: clinical use, background statement

Nc1nc2ccc(OC(F)(F)F)cc2s1 [Riluzole]
survival of ALS diagnosed patients: extend survival of ALS diagnosed patients for a few months
